The source of these data is patent US7495109B2, “Nociceptin analogs” (dated 2009).

The chains behind the UniProt entries cited, without tags or fusion partners.
UniProt P41146, whole entry: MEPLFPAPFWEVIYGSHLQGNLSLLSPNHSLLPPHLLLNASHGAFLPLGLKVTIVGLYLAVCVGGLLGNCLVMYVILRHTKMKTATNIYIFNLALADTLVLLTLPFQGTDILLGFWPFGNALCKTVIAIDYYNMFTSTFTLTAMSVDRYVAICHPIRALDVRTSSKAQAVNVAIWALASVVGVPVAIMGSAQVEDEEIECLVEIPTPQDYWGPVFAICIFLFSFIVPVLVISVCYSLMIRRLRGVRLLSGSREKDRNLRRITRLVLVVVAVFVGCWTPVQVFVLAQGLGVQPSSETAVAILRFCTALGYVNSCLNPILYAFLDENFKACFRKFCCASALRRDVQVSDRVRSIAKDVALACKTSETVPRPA
UniProt P35372, whole entry: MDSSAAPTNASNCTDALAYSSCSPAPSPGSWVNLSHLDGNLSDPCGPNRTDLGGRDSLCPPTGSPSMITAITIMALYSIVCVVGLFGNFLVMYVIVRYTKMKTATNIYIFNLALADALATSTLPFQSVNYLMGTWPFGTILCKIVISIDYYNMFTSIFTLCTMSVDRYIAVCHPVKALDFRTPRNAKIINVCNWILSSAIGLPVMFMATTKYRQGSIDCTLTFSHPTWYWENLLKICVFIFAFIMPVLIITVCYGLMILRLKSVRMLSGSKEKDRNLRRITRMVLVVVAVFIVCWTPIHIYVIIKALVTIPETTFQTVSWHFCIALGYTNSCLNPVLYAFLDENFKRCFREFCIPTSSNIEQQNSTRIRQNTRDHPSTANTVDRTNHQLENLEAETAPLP

Assay [1] deals with human opioid receptor-like receptor (ORL-1) (Homo sapiens, UniProt P41146). The assay can be described thus: Nociceptin affinity at the ORL1 receptor ([35S]GTPgS binding, HEK-293 membranes). The following applies: read-out: Nociceptin Affinity calc Ki; Table 2; membranes from recombinant HEK-293 cells expressing human ORL-1. How it is done:
Nociceptin affinity at the ORL1 receptor for preferred compounds was obtained using the following assay:
Membranes from recombinant HEK-293 cells expressing the human opioid receptor-like receptor (ORL-1) (Receptor Biology) were prepared by lysing cells in ice-cold hypotonic buffer (2.5 mM MgCl2, 50 mM HEPES, pH 7.4) (10 ml/10 cm dish) followed by homogenization with a tissue grinder/teflon pestle. Membranes were collected by centrifugation at 30,000×g for 15 min at 4° C. and pellets resuspended in hypotonic buffer to a final concentration of 1-3 mg/ml. Protein concentrations were determined using the BioRad protein assay reagent with bovine serum albumen as standard. Aliquots of the ORL-1 receptor membranes were stored at −80° C.
(§1) Functional SGTPgS binding assays were conducted as follows. ORL-1 membrane solution was prepared by sequentially adding final concentrations of 0.066 mg/ml ORL-1 membrane protein, […], […] and 0.20 nM [^35S]GTPgS to binding buffer (100 mM NaCl, 10 mM MgCl2, 20 mM HEPES, pH 7.4) on ice. The prepared membrane solution ([…]) was transferred to 96-shallow well polypropylene plates containing […] of 20× concentrated stock solutions of agonist prepared in DMSO. Plates were incubated for 30 min at room temperature with shaking. Reactions were terminated by rapid filtration onto 96-well Unifilter GF/B filter plates (Packard) using a 96-well tissue harvester (Brandel) and followed by three filtration washes with 200 ml ice-cold binding buffer (10 mM NaH2PO4, 10 mM Na2HPO4, pH 7.4). Filter plates were subsequently dried at 50° C. for 2-3 hours. Fifty ml/well scintillation cocktail (BetaScint; Wallac) was added and plates were counted in a Packard Top-Count for 1 min/well.
Data was analyzed using the curve fitting functions in GraphPad PRISMÔ, v.
as §1, with “well-polypropylene” for “well polypropylene”

The target of another assay is Mu opioid receptor (Homo sapiens, UniProt P35372). Briefly: Affinity at the μ receptor ([35S]GTPγS binding, membranes). The following applies: read-out: Mu Receptor Affinity calc Ki; Table 5; mu opioid receptor membrane solution. As for the experimental part: Affinity at the μ receptor for compounds was obtained according to the following assay:
Mu opioid receptor membrane solution was prepared by sequentially adding final concentrations of 0.075 μg/μl of the desired membrane protein, 10 μg/ml saponin, 3 μM GDP and 0.20 nM [^35S]GTPγS to binding buffer (100 mM NaCl, 10 mM MgCl2, 20 mM HEPES, pH 7.4) on ice. The prepared membrane solution (190 μl/well) was transferred to 96-shallow well polypropylene plates containing 10 μl of 20× concentrated stock solutions of agonist prepared in DMSO. Plates were incubated for 30 min at room temperature with shaking. Reactions were terminated by rapid filtration onto 96-well Unifilter GF/B filter plates (Packard) using a 96-well tissue harvester (Brandel) and followed by three filtration washes with 200 μl ice-cold binding buffer (10 mM NaH2PO4, 10 mMNa2HPO4, pH 7.4). Filter plates were subsequently dried at 50° C. for 2-3 hours. Fifty μl/well scintillation cocktail (MicroScint20, Packard) was added and plates were counted in a Packard Top-Count for 1 min/well.
Data were analyzed using the curve fitting functions in GraphPad PRISM™, v.

In the case of `CCC1C(=O)N(C2CCN(C3CCc4ccccc4C3)CC2)c2ccccc21` (centres unmarked), in assay [1], the Ki was 0.124 µM.

With `O=C1Cc2ccccc2N1C1CCN(CCC(c2ccccc2)c2ccccc2)CC1`, the Ki in assay [1] was 0.0125 µM.

`CC=C1C(=O)N(C2CCN(CCC(c3ccccc3)c3ccccc3)CC2)c2ccccc21`: the inhibition constant Ki was 0.024 µM at Mu opioid receptor and 0.101 µM in assay [1].

As for `O=C1Cc2ccccc2N1C1CCN(CC2CCCCCCC2)CC1`, the Ki in assay [1] was 0.0543 µM.

Regarding `CCC1C(=O)N(C2CCN(C3CCC(C(C)C)CC3)CC2)c2ccccc21` (centres unmarked), in assay [1], the inhibitory constant (Ki) was 0.00086 µM.

For the molecule `CC=C1C(=O)N(C2CCN(C3CCc4ccccc4C3)CC2)c2ccccc21` (centres unmarked), the Ki is 0.0233 µM on Mu opioid receptor and 0.0167 µM in assay [1].

The Ki is the dissociation constant of the complex between target and ligand, obtained from inhibition or displacement.
